Data: US11229629B2, “Inhibitors of mitochondrial fission” (Queen's University at Kingston, priority 2019, dated 2022)

What was measured:
A549 = assay: Apoptosis assay (Annexin V/PI) in A549 cells; type: cell-based, human; settings: mdivi-1 25 μM, Drpitor1 1.0 μM, Drpitor1a 0.5 μM, FIG. 6B
Description: Apoptosis assay: Cell apoptosis was determined by the Annexin V+ propidium iodide (PI) method using Alexa Fluor 488 Annexin V/Dead Cell Apoptosis Kit (available from ThermoFisher Scientific). A549 cells were collected 48 hours after compound treatment. Percentage of Annexin V (+) and PI (+) cells was determined using SONY S[…] flow cytometer and compared between control group and treatment groups.

[1] = system: right ventricle ischemia-reperfusion injury; settings: 0.5 μM in perfusate; ex vivo rat heart

SMILES	Baseline apoptosis rate (percentage of cells with positive Annexin V staining) (A549)	Right ventricular end-diastolic pressure (RVEDP) after two periods of IR [1]
O=C1c2ccncc2C(=O)c2c1[nH]c1ccccc21 [Drpitor1a]	significantly higher	did not manifest the increase in right ventricular end-diastolic pressure
COc1cc(-n2c(=S)[nH]c3ccccc3c2=O)c(Cl)cc1Cl [mdivi-1, mitochondrial division inhibitor 1, reference compound]	significantly higher	–
